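Briefly, cells in 96-well plates were exposed to five compound concentrations for 48 h, and endpoints were estimated by linear interpolation. GI50 is the concentration that inhibits growth by half. At the TGI there is no net growth.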
Legend:
Assay in all cases: inhibition of tumour cell growth, NCI panel, 48 h
EKVX NSCLC = tested on: EKVX NSCLC
HCT-15 colon = tested on: HCT-15 colon
ACHN renal = tested on: ACHN renal
RPMI-8226 leukemia = tested on: RPMI-8226 leukemia
NCI-H322M lung = tested on: NCI-H322M lung
CAKI-1 renal = tested on: CAKI-1 renal
NCI/ADR-RES ovarian = tested on: NCI/ADR-RES ovarian
NCI-H23 lung = tested on: NCI-H23 lung
SW-620 colon = tested on: SW-620 colon
OVCAR-5 ovarian = tested on: OVCAR-5 ovarian
MOLT-4 leukemia = tested on: MOLT-4 leukemia
HCT-116 colon = tested on: HCT-116 colon
SK-MEL-2 melanoma = tested on: SK-MEL-2 melanoma
DU-145 prostate = tested on: DU-145 prostate
KM12 colon = tested on: KM12 colon
SK-MEL-5 melanoma = tested on: SK-MEL-5 melanoma
HL-60(TB) leukemia = tested on: HL-60(TB) leukemia
MDA-MB-435 = tested on: MDA-MB-435
M14 melanoma = tested on: M14 melanoma
NCI-H460 lung = tested on: NCI-H460 lung
A549 NSCLC = tested on: A549 NSCLC
SNB-75 CNS = tested on: SNB-75 CNS
UACC-62 melanoma = tested on: UACC-62 melanoma
BT-549 breast = tested on: BT-549 breast
OVCAR-4 ovarian = tested on: OVCAR-4 ovarian
OVCAR-3 ovarian = tested on: OVCAR-3 ovarian
SF-268 CNS = tested on: SF-268 CNS
SN12C renal = tested on: SN12C renal
HOP-92 NSCLC = tested on: HOP-92 NSCLC
SF-295 CNS = tested on: SF-295 CNS
MDA-N = tested on: MDA-N
PC-3 prostate = tested on: PC-3 prostate
SK-MEL-28 melanoma = tested on: SK-MEL-28 melanoma
UO-31 renal = tested on: UO-31 renal
UACC-257 melanoma = tested on: UACC-257 melanoma
SF-539 CNS = tested on: SF-539 CNS
MCF7 breast = tested on: MCF7 breast
A498 renal = tested on: A498 renal
CCRF-CEM leukemia = tested on: CCRF-CEM leukemia
HT29 colon = tested on: HT29 colon
COLO 205 colon = tested on: COLO 205 colon
K-562 leukemia = tested on: K-562 leukemia
U251 CNS = tested on: U251 CNS
NCI-H522 lung = tested on: NCI-H522 lung
NCI-H226 lung = tested on: NCI-H226 lung
TK-10 renal = tested on: TK-10 renal
HS 578T breast = tested on: HS 578T breast
786-0 renal = tested on: 786-0 renal
T-47D breast = tested on: T-47D breast
SK-OV-3 ovarian = tested on: SK-OV-3 ovarian
HOP-62 NSCLC = tested on: HOP-62 NSCLC
RXF 393 renal = tested on: RXF 393 renal

Structure (SMILES): Cc1cccc2c1OP(=O)(N(CCCl)CCCl)OC2C(Cl)(Cl)Cl (centres undefined)
- GI50 (EKVX NSCLC): 14.5 µM
- TGI (EKVX NSCLC): 30.9 µM
- GI50 (HCT-15 colon): 13.8 µM
- TGI (HCT-15 colon): 27.7 µM
- GI50 (ACHN renal): 15.6 µM
- TGI (ACHN renal): 37.7 µM
- GI50 (RPMI-8226 leukemia): 4.04 µM
- TGI (RPMI-8226 leukemia): > 100 µM
- GI50 (NCI-H322M lung): 18.2 µM
- TGI (NCI-H322M lung): 34.2 µM
- GI50 (CAKI-1 renal): 11.1 µM
- TGI (CAKI-1 renal): 23.8 µM
- GI50 (NCI/ADR-RES ovarian): 12.3 µM
- TGI (NCI/ADR-RES ovarian): 26.3 µM
- GI50 (NCI-H23 lung): 15.3 µM
- TGI (NCI-H23 lung): 34.1 µM
- GI50 (SW-620 colon): 15.3 µM
- TGI (SW-620 colon): 28.6 µM
- GI50 (OVCAR-5 ovarian): 19 µM
- TGI (OVCAR-5 ovarian): 34 µM
- GI50 (MOLT-4 leukemia): 5.46 µM
- TGI (MOLT-4 leukemia): > 100 µM
- GI50 (HCT-116 colon): 11.3 µM
- TGI (HCT-116 colon): 23.8 µM
- GI50 (SK-MEL-2 melanoma): 17.5 µM
- TGI (SK-MEL-2 melanoma): 32.4 µM
- GI50 (DU-145 prostate): 17.3 µM
- TGI (DU-145 prostate): 35.1 µM
- GI50 (KM12 colon): 13.1 µM
- TGI (KM12 colon): 26 µM
- GI50 (SK-MEL-5 melanoma): 11.5 µM
- TGI (SK-MEL-5 melanoma): 23.9 µM
- GI50 (HL-60(TB) leukemia): > 100 µM
- TGI (HL-60(TB) leukemia): > 100 µM
- GI50 (MDA-MB-435): 14.2 µM
- TGI (MDA-MB-435): 27.5 µM
- GI50 (M14 melanoma): 14 µM
- TGI (M14 melanoma): 27.7 µM
- GI50 (NCI-H460 lung): 13.7 µM
- TGI (NCI-H460 lung): 27.7 µM
- GI50 (A549 NSCLC): 10.5 µM
- TGI (A549 NSCLC): 26.3 µM
- GI50 (SNB-75 CNS): 13.4 µM
- TGI (SNB-75 CNS): 29 µM
- GI50 (UACC-62 melanoma): 8.39 µM
- TGI (UACC-62 melanoma): 21.2 µM
- GI50 (BT-549 breast): 16.9 µM
- TGI (BT-549 breast): 30.9 µM
- GI50 (OVCAR-4 ovarian): 16.6 µM
- TGI (OVCAR-4 ovarian): 50.8 µM
- GI50 (OVCAR-3 ovarian): 11.6 µM
- TGI (OVCAR-3 ovarian): 24.5 µM
- GI50 (SF-268 CNS): 19 µM
- TGI (SF-268 CNS): 37.2 µM
- GI50 (SN12C renal): 16.2 µM
- TGI (SN12C renal): 30.6 µM
- GI50 (HOP-92 NSCLC): 11.6 µM
- TGI (HOP-92 NSCLC): 25.1 µM
- GI50 (SF-295 CNS): 10.6 µM
- TGI (SF-295 CNS): 23.6 µM
- GI50 (MDA-N): 16 µM
- TGI (MDA-N): 29.9 µM
- GI50 (PC-3 prostate): 4.45 µM
- TGI (PC-3 prostate): 18.7 µM
- GI50 (SK-MEL-28 melanoma): 18.2 µM
- TGI (SK-MEL-28 melanoma): 32.7 µM
- GI50 (UO-31 renal): 11.1 µM
- TGI (UO-31 renal): 23.3 µM
- GI50 (UACC-257 melanoma): 14.2 µM
- TGI (UACC-257 melanoma): 28.1 µM
- GI50 (SF-539 CNS): 18 µM
- TGI (SF-539 CNS): 32.4 µM
- GI50 (MCF7 breast): 16.6 µM
- TGI (MCF7 breast): 30.6 µM
- GI50 (A498 renal): 16.8 µM
- TGI (A498 renal): 30.7 µM
- GI50 (CCRF-CEM leukemia): 20.7 µM
- TGI (CCRF-CEM leukemia): > 100 µM
- GI50 (HT29 colon): 13.2 µM
- TGI (HT29 colon): 26.2 µM
- GI50 (COLO 205 colon): 14.7 µM
- TGI (COLO 205 colon): 28.3 µM
- GI50 (K-562 leukemia): 7.8 µM
- TGI (K-562 leukemia): > 100 µM
- GI50 (U251 CNS): 15.8 µM
- TGI (U251 CNS): 29.9 µM
- GI50 (NCI-H522 lung): 12.1 µM
- TGI (NCI-H522 lung): 24.8 µM
- GI50 (NCI-H226 lung): 14.3 µM
- TGI (NCI-H226 lung): 32 µM
- GI50 (TK-10 renal): 19.2 µM
- TGI (TK-10 renal): 38 µM
- GI50 (HS 578T breast): 20.9 µM
- TGI (HS 578T breast): 74.7 µM
- GI50 (786-0 renal): 14.9 µM
- TGI (786-0 renal): 28.2 µM
- GI50 (T-47D breast): 14.7 µM
- TGI (T-47D breast): 31.2 µM
- GI50 (SK-OV-3 ovarian): 17.6 µM
- TGI (SK-OV-3 ovarian): 43.2 µM
- GI50 (HOP-62 NSCLC): 15.8 µM
- TGI (HOP-62 NSCLC): 30.5 µM
- GI50 (RXF 393 renal): 12.1 µM
- TGI (RXF 393 renal): 25.4 µM
